US10919885B2, “Compounds and uses thereof” (Yumanity Therapeutics, Inc., priority 2018, dated 2021)

Sequences of proteins named here, by UniProt entry; tags and fusion partners are left off. A change or cut given only in a name is not applied to a line headed by its entry.
UniProt O00767: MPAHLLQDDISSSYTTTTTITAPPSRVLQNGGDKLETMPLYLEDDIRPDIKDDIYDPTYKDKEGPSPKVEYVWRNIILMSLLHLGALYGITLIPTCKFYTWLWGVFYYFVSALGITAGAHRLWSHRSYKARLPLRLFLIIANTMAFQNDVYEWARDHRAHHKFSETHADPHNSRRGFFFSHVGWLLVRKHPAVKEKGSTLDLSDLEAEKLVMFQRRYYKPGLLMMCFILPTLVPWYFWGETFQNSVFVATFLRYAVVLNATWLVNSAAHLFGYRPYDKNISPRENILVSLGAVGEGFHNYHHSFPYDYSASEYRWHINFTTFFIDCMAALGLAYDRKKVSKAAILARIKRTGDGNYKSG
UniProt Q86SK9: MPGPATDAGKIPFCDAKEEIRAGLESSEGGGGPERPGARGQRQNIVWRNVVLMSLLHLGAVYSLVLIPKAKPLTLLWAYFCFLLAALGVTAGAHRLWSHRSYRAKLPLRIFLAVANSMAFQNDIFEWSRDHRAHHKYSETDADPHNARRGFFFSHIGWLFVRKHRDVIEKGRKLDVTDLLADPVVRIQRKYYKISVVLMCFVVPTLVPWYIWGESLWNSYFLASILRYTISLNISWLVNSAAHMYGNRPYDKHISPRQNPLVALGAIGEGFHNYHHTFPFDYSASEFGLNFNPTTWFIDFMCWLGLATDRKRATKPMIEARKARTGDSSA

Target: human SCD1 (Homo sapiens (Human), UniProt O00767)
Test: Yeast growth assay, strain expressing human SCD1 as the sole desaturase (reduced growth as surrogate for SCD inhibition)
Type: cell-based
Details: yeast with OLE1 deleted expressing human SCD1 from a plasmid; growth read as OD600 after 40 h at 30° C.; top drug concentration 33.3 μM
Protocol: (§1) Strains expressing SCD1 or SCD5 as the sole desaturase, the human SCD1 and SCD5 genes were used to evaluate inhibition of SCD1/SCD5 using reduced growth as a surrogate for SCD inhibition. These yeast strains express human SCD1 or SCD5 from a plasmid harbored in a strain in which the yeast OLE1 gene is deleted.
(§2) All compound profiling experiments were performed using the same basic protocol. Yeast were cultured using standard techniques in complete synthetic media lacking uracil and containing yeast nitrogen base supplemented with 2% (w/v) glucose (SD-Ura) Starter cultures were inoculated in 3 mL SD-Ura media containing 0.01% tween and 0.2 mM palmitoleic and oleic acid. Cultures were incubated overnight in a 30° C. shaker incubator (225 rpm). Saturated morning cultures were centrifuged, washed in SD-Ura media lacking TWEEN-20 and fatty acids, and then diluted 1:20 in fresh SD-Ura media also lacking TWEEN-20 and fatty acids.
Compound administration was performed in two separate steps. First, 15 μL of SD-Ura was dispensed into clear 384-well assay plates using a MULTIDROP™ Combi reagent dispenser. […]
(§3) After yeast delivery, assay plates were incubated under humidified conditions at 30° C. for 40 h. Yeast growth was monitored by reading the OD600 of each well using a microplate reader (Perkin Elmer EnVision™).

SMILES | IC50 [nM]
CN(C)c1cc(C(=O)Nc2cnn(Cc3ccccc3)c2)no1 [Compound 203, N-(1-benzyl-1H-pyrazol-4-yl)-5-(dimethylamino)isoxazole-3-carboxamide] | 25

Target: human SCD5 (Homo sapiens (Human), UniProt Q86SK9)
Test: Yeast growth assay, strain expressing human SCD5 as the sole desaturase (reduced growth as surrogate for SCD inhibition)
Type: cell-based
Details: yeast with OLE1 deleted expressing human SCD5 from a plasmid; growth read as OD600 after 40 h at 30° C.; top drug concentration 33.3 μM
Protocol: as §1, §2
Compound administration was performed in two separate steps. First, 15 μL of SD-Ura was dispensed into clear 384-well assay plates using a MULTIDROP™ Combi reagent dispenser. […] The cultures described above were centrifuged and washed with media lacking TWEEN-20 or oleic and palmitoleic acids.
as §3

IC50 [nM] | SMILES
7900 | O=C(Nc1cnn(Cc2cccc(F)c2)c1)c1cc(-c2cncs2)on1 [Compound 69, N-(1-(3-fluorobenzyl)-1H-pyrazol-4-yl)-5-(thiazol-5-yl)isoxazole-3-carboxamide]
1200 | O=C(Nc1cnn(Cc2cccc(F)c2)c1)c1cc(N2CCOCC2)on1 [Compound 101, N-(1-(3-fluorobenzyl)-1H-pyrazol-4-yl)-5-morpholinoisoxazole-3-carboxamide]
9100 | O=C(Nc1cnn(Cc2cccc(F)c2)c1)c1cc(Cl)on1 [Compound 105, 5-chloro-N-(1-(3-fluorobenzyl)-1H-pyrazol-4-yl)isoxazole-3-carboxamide]
1800 | CC(C)c1cc(C(=O)Nc2cnn(Cc3ccccc3)c2)on1 [Compound 158, N-(1-benzyl-1H-pyrazol-4-yl)-3-isopropylisoxazole-5-carboxamide]
2300 | O=C(Nc1cnn(Cc2cnccc2C(F)(F)F)c1)c1cc(-c2ccccc2)on1 [Compound 160, 5-phenyl-N-(1-((4-(trifluoromethyl)pyridin-3-yl)methyl)-1H-pyrazol-4-yl)isoxazole-3-carboxamide]
> 45000 | O=C(Nc1cnn(Cc2ccccc2)c1)c1cc(Cl)on1 [Compound 180]
> 45000 | O=C(Nc1cnn(Cc2ccccc2)c1)c1cc(N2CCNCC2)on1 [Compound 190]
696 | O=C(Nc1cnn(Cc2cnccc2C(F)(F)F)c1)c1noc2c1CCCC2 [Compound 194, N-(1-{[4-(trifluoromethyl)pyridin-3-yl]methyl}-1H-pyrazol-4-yl)-4,5,6,7-tetrahydro-1,2-benzoxazole-3-carboxamide]
2300 | O=C(Nc1cnn(Cc2cnccc2C(F)(F)F)c1)c1cc(-c2ccco2)on1 [Compound 198, 5-(furan-2-yl)-N-(1-{[4-(trifluoromethyl)pyridin-3-yl]methyl}-1H-pyrazol-4-yl)-1,2-oxazole-3-carboxamide]
6000 | O=C(Nc1cnn(Cc2cnccc2C(F)(F)F)c1)c1cc(-c2ccc3c(c2)OCO3)on1 [Compound 199, 5-(2H-1,3-benzodioxol-5-yl)-N-(1-{[4-(trifluoromethyl)pyridin-3-yl]methyl}-1H-pyrazol-4-yl)-1,2-oxazole-3-carboxamide]
6300 | O=C(Nc1cnn(Cc2cnccc2C(F)(F)F)c1)c1cc(-c2ccncn2)on1 [Compound 200, 5-(pyrimidin-4-yl)-N-(1-((4-(trifluoromethyl)pyridin-3-yl)methyl)-1H-pyrazol-4-yl)isoxazole-3-carboxamide]
90 | O=C(c1cc(-c2ccccc2)on1)N1CC=C(c2cc(F)ccc2Cl)CC1 [Compound 305]
1010 | O=C(c1cc(-c2ccc3c(c2)OCO3)on1)N1CCC(c2cccc(F)c2)CC1 [Compound 309, [5-(1,3-benzodioxol-5-yl)isoxazol-3-yl]-[4-(3-fluorophenyl)-1-piperidyl]methanone]

SMILES | IC50 [nM]
CN(C)c1cc(C(=O)Nc2cnn(Cc3ccccc3)c2)no1 [Compound 203, N-(1-benzyl-1H-pyrazol-4-yl)-5-(dimethylamino)isoxazole-3-carboxamide] | 2500
